This is an account of results in article PMC4357494 (Journal of molecular biology, 2014).

Assay [1] has as its system Bcl-2 3256 cells (Bcl-2 dependent).
Assay [2] has as its system Mcl-1 2640 cells (Mcl-1 dependent). As to the kind of experiment: BH3 profiling, Mcl-1 2640. Format: cell-based, murine. To be noted: 5 μM peptide. Summed up: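 Myc-driven murine leukemia line, Mcl-1 dependent, grown in RPMI 1640 with 10% FBS and […] 2-mercaptoethanol. Permeabilized cells at 2×10^4/well, triplicate wells, exposed to peptides including 5 μM. JC-1 read-out; depolarization expressed as percentage relative to FCCP (full) and DMSO (none). At least three biological replicates.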

`CSCC[C@H](NC(=O)[C@@H](NC(=O)[C@H](CCCNC(=N)N)NC(=O)[C@H](CCC(N)=O)NC(=O)[C@H](Cc1c[nH]cn1)NC(=O)[C@H](CC(C)C)NC(=O)[C@H](CCC(=O)O)NC(=O)[C@H](CC(=O)O)NC(=O)CNC(=O)[C@H](CC(C)C)NC(=O)[C@H](C)NC(=O)[C@H](CCCCN)NC(=O)[C@H](CC(C)C)NC(=O)[C@H](CCCNC(=N)N)NC(=O)[C@H](C)NC(=O)[C@H](C)NC(=O)[C@@H](NC(=O)[C@H](CC(C)C)NC(=O)[C@H](CCC(N)=O)NC(=O)[C@H](C)NC(=O)[C@H](C)NC(=O)[C@H](CO)NC(C)=O)[C@@H](C)O)[C@@H](C)O)C(=O)N[C@@H](Cc1c[nH]c2ccccc12)C(N)=O` [Hrk, reference compound]: the 50% effective concentration (EC50) in assay [1] was > 10 µM. Further, the “depolarization in the Mcl-1 dependent line (in words)” value in assay [2] is reported as “low amount of depolarization”.
